The source of these data is patent publication US8815891B2, “Tricyclic derivative or pharmaceutically acceptable salts thereof, preparation method thereof, and pharmaceutical composition containing the same” (Je Il Pharmaceutical Co., Ltd., priority 2008, dated 2014).

By UniProt entry, the sequences of proteins in these tests, tags left out.
UniProt Q9R152, whole entry: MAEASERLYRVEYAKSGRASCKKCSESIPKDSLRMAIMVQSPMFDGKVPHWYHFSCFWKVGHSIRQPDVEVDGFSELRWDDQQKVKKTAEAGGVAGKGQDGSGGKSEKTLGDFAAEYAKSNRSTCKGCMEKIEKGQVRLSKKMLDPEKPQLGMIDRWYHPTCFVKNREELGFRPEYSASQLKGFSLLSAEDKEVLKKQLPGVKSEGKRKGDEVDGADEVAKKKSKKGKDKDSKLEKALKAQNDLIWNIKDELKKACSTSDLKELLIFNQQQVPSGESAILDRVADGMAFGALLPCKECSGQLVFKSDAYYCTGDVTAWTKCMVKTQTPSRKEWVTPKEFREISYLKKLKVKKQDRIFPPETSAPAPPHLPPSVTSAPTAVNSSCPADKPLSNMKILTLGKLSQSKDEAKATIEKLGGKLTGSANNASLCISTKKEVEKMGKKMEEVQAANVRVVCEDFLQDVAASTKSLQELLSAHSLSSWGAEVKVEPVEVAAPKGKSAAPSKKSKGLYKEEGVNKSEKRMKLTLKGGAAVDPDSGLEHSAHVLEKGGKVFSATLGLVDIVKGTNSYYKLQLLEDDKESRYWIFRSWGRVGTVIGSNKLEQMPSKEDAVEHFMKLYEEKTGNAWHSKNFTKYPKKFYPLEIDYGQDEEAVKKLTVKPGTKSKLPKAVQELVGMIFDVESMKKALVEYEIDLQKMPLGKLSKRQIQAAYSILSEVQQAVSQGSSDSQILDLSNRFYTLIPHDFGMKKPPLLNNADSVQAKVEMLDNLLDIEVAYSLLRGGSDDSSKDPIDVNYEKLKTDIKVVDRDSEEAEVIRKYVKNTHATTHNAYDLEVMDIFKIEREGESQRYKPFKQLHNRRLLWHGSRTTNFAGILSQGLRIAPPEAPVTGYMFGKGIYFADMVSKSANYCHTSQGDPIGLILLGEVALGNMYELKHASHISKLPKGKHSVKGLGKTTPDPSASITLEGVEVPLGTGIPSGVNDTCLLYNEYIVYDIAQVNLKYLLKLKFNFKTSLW

Where a name gives a salt, the structure may show the parent alone.

The experiment deals with PARP-1 enzyme (Cricetulus griseus (Chinese hamster) (Cricetulus barabensis griseus), UniProt Q9R152). The experiment in a line: Intracellular PARP inhibitory activity (NAD(P)H released by MMS-treated CHO-K1 cells). Type of experiment: cell-based.
As to `CNCc1ccc2c3c(c(=O)[nH]c2c1)CCCN3` [Example 52, 8-[(Methylamino)methyl]-1,2,3,4-tetrahydrobenzo[h][1,6]naphthyridine-5(6H)-one dihydrochloride], the IC50 amounted to 170 nM.
In the case of `COc1cc(CN(C)C2CCOCC2)cc2[nH]c(=O)c3c(c12)NCCC3` [Example 115, 10-Methoxy-8-{[methyl(tetrahydro-2H-pyran-4-yl)amino]methyl}-1,2,3,4-tetrahydrobenzo[h][1,6]naphthyridine-5(6H)-one dihydrochloride] it was 1220 nM; in that of `COc1ccc2[nH]c(=O)c3c(c2c1)NCCC3` [Example 3, 9-Methoxy-1,2,3,4-tetrahydrobenzo[h][1,6]naphthyridine-5(6H)-one hydrochloride], 870 nM.
`COc1cc(CNCCN2CCOCC2)cc2[nH]c(=O)c3c(c12)NCCC3` [Example 107, 10-Methoxy-8-[(2-morpholinoethylamino)methyl)-1,2,3,4-tetrahydrobenzo[h][1,6]naphthyridine-5(6H)-one trihydrochloride]: the IC50 is 2220 nM.
The value for `COc1cc(CO)cc2[nH]c(=O)c3c(c12)NCCC3` [Example 105, 8-(Hydroxymethyl)-10-methoxy-1,2,3,4-tetrahydrobenzo[h][1,6]naphthyridine-5(6H)-one hydrochloride] was 1210 nM; that for `O=c1[nH]c2cc(CN3CCOCC3)ccc2c2c1CCCN2` [Example 49, 8-(Morpholinomethyl)-1,2,3,4-tetrahydrobenzo[h][1,6]naphthyridine-5(6H)-one dihydrochloride] was 510 nM.
The value for `COc1cc(CNC(C)C)cc2[nH]c(=O)c3c(c12)NCCC3` [Example 88, 8-[(Isopropylamino)methyl]-10-methoxy-1,2,3,4-tetrahydrobenzo[h][1,6]naphthyridine-5 (6H)-one dihydrochloride] was 270 nM.
Turning to `CC(C)NCc1ccc2c3c(c(=O)[nH]c2c1)CCCN3` [Example 45, 8-[(Isopropylamino)methyl]-1,2,3,4-tetrahydrobenzo[h][1,6]naphthyridine-5(6H)-one dihydrochloride], the IC50 worked out at 1160 nM.
For `NCc1ccc2c3c(c(=O)[nH]c2c1)CCCN3` [Example 112, 8-(Aminomethyl)-1,2,3,4-tetrahydrobenzo[h][1,6]naphthyridine-5 (6H)-one dihydrochloride], the IC50 came to 2650 nM.
The value for `CCOc1cc(CN2CCCCC2)cc2[nH]c(=O)c3c(c12)NCCC3` [Example 102, 10-Ethoxy-8-(piperidine-1-ylmethyl)-1,2,3,4-tetrahydrobenzo[h][1,6]naphthyridine-5(6H)-one dihydrochloride] was 500 nM.
As for `CNC(C)c1ccc2c3c(c(=O)[nH]c2c1)CCCN3` (centres unmarked) [Example 39, 8-[1-(Methylamino)ethyl]-1,2,3,4-tetrahydrobenzo[h][1,6]naphthyridine-5(6H)-one dihydrochloride], the IC50 is 1560 nM.
In the case of `COc1cc(CN2CCCC2)cc2[nH]c(=O)c3c(c12)NCCC3` [Example 77, 10-Methoxy-8-(pyrrolidine-1-ylmethyl)-1,2,3,4-tetrahydrobenzo[h][1,6]naphthyridine-5(6H)-one dihydrochloride] it was 820 nM.
Consider `O=c1[nH]c2ccc(OCCc3ccccc3)cc2c2c1CCCN2` [Example 25, 9-Penethoxy-1,2,3,4-tetrahydrobenzo[h][1,6]naphthyridine-5(6H)-one dihydrochloride], for which the IC50 amounted to 3180 nM.
`COCCOc1cc(CN(C)C)cc2[nH]c(=O)c3c(c12)NCCC3` [Example 116, 8-[(Dimethylamino)methyl]-10-(2-methoxyetoxy)-1,2,3,4-tetrahydrobenzo[h][1,6]naphthyridine-5(6H)-one dihydrochloride]: the half-maximal inhibitory concentration (IC50) was found to be 520 nM.

As a reminder, the IC50 is the concentration that gives 50% inhibition.
